{"source": "patent US20090214670A1", "about": "“Rhcc peptide and uses thereof” (Optovent AB, priority 2005, published 2009)", "assay_type": "physicochemical", "excerpt": "The calculated molecular mass of RHCC-IL-6 monomer is 28.3 kDa. […] The corresponding value for the tetramer is […]."}
{"substance": "RHCC-IL-6 fusion molecule: fusion protein: histidine tag, human interleukin-6 sequence, GS linker, RHCC sequence; forms a tetramer", "values": [{"measurement": "solubility in aqueous media", "result": "soluble in aqueous media"}]}
